The results in this text go back to US7211395 (dated 2007).

Sequences of proteins named here, by UniProt entry; tags and fusion partners are left off. Residues count along the entry.
UniProt P07724, 25-608: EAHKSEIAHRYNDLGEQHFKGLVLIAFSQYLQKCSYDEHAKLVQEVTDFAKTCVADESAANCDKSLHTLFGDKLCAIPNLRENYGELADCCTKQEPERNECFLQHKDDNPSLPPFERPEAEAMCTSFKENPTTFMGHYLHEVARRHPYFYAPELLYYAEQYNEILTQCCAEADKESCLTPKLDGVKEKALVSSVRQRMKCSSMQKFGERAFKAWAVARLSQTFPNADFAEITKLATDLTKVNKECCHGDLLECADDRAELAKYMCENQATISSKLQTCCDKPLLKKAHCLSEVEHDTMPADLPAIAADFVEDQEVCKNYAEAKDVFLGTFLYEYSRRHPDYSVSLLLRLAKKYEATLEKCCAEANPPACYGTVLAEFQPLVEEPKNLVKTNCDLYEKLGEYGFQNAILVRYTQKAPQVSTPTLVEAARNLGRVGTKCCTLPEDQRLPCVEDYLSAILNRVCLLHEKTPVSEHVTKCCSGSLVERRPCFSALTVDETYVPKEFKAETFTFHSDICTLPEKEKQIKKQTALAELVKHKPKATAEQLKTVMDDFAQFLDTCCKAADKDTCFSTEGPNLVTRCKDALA
UniProt P02769, 25-607: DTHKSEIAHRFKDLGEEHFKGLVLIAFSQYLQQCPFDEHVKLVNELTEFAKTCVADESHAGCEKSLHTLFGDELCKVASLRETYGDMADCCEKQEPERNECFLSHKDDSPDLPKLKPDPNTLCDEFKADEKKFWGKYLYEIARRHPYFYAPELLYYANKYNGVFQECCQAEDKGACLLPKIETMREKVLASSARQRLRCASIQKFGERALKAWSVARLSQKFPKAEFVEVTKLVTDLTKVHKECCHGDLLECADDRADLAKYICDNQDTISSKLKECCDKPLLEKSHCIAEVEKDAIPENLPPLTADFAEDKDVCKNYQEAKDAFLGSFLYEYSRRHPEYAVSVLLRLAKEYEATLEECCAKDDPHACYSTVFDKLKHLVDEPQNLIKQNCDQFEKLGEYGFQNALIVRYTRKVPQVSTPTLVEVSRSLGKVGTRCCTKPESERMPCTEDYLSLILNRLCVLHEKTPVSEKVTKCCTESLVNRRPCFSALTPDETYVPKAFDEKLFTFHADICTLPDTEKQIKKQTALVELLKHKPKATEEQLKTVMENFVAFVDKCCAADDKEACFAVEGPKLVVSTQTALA

The target of experiment [1] is T1, human serum albumin (HSA) (human, UniProt P02768). Nature of the experiment: FP.
The target of experiment [2] is T2, rat serum albumin (rat, UniProt P02770).
T2 chain: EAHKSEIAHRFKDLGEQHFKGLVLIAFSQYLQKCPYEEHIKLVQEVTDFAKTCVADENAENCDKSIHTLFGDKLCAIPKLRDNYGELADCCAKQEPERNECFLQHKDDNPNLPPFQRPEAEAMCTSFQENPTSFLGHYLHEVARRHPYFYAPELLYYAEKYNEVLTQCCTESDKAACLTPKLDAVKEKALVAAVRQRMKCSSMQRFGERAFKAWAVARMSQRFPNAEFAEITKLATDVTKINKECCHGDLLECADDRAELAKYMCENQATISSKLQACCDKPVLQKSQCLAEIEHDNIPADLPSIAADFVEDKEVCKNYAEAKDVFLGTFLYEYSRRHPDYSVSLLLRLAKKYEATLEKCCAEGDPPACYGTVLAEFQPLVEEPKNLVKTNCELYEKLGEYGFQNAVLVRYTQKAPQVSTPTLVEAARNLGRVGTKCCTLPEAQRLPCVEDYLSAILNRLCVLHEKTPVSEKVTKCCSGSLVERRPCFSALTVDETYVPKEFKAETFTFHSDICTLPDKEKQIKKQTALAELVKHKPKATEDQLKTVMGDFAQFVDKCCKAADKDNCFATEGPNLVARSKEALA
Nature of the experiment: FP, PBS pH 7.4.

Experiment [3] deals with T3, rabbit serum albumin (rabbit, UniProt P49065).
T3 chain: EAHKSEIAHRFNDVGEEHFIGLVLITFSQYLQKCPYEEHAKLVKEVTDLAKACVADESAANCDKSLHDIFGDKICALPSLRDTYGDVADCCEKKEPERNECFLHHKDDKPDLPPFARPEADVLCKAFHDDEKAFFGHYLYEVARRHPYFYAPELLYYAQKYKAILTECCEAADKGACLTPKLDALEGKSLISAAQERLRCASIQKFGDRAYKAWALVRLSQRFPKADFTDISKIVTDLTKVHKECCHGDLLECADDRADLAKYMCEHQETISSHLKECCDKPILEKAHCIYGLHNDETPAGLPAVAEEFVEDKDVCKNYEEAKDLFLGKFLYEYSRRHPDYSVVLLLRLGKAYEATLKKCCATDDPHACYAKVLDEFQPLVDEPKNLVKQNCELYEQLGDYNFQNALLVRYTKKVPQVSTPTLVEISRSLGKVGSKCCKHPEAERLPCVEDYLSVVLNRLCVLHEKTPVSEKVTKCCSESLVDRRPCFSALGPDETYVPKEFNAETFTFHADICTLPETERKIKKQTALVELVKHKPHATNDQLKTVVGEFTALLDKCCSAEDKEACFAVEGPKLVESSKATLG
Put plainly: FP, PBS pH 7.4.

The target in experiment [4] is T4, pig serum albumin (pig, UniProt P08835).
T4 chain: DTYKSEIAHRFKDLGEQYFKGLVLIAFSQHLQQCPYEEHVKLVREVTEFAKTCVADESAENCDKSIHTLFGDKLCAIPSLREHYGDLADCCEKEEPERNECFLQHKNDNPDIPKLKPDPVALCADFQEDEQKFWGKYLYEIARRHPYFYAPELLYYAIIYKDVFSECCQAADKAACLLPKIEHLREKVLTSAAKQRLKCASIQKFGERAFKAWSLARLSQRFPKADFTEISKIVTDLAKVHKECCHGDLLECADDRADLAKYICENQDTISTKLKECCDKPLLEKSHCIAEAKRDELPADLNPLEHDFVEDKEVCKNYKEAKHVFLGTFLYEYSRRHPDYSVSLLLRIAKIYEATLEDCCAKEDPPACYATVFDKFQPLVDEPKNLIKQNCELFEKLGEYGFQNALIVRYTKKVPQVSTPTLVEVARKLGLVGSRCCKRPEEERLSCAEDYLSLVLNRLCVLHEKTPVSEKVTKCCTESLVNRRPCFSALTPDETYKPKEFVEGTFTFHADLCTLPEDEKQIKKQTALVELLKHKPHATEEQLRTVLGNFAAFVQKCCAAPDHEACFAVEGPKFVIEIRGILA
Put plainly: FP, PBS pH 7.4.

Experiment [5] concerns the target T5, mouse serum albumin (mouse, UniProt P07724). Nature of the experiment: FP, PBS pH 7.4.
For experiment [6], the target named is T6, bovine serum albumin (bovine, UniProt P02769). Put plainly: FP, PBS pH 7.4.
Experiment [7] addresses T7, rhesus serum albumin (rhesus macaque, UniProt Q28522).
T7 chain: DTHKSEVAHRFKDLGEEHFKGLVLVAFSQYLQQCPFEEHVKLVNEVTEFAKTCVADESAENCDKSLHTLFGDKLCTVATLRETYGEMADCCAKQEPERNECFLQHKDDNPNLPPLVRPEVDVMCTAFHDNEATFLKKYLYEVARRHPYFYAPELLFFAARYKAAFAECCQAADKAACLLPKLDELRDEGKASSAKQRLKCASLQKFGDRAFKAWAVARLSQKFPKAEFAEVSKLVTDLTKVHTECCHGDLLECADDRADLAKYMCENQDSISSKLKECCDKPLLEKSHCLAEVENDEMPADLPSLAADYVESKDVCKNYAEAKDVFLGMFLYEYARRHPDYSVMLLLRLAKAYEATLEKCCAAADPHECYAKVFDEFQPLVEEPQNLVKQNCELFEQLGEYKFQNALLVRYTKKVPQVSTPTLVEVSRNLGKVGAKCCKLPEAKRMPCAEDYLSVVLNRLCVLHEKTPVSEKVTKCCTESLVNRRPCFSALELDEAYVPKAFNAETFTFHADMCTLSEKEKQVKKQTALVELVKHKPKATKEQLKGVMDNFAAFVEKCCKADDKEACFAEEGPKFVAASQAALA
Nature of the experiment: FP, PBS pH 7.4.

The target in experiment [8] is T1, human serum albumin (HSA). Put plainly: FP, PBS pH 7.4.
In experiment [9] the target is T7, rhesus serum albumin. Nature of the experiment: FP, pH 6.2, no NaCl.
In experiment [10] the target is T5, mouse serum albumin. Put plainly: FP, pH 6.2, no NaCl.
Experiment [11] has as its target T6, bovine serum albumin. Nature of the experiment: FP, pH 6.2, no NaCl.
Experiment [12] has as its target T2, rat serum albumin. Put plainly: FP, pH 6.2, no NaCl.
In experiment [13] the target is T1, human serum albumin (HSA). Nature of the experiment: FP, pH 6.2, no NaCl.
Experiment [14] addresses T1, human serum albumin (HSA). Put plainly: FP, pH 6.2, no NaCl. This is another data set of the same source.
For experiment [15], the target named is T1, human serum albumin (HSA). Nature of the experiment: FP, pH 6.2, no NaCl. The source holds these as a separate data set.
The target in experiment [16] is T1, human serum albumin (HSA). Put plainly: FP, pH 7.4, 0.14 M NaCl.

B1: DX-236 (peptide)
chain: AEGTGDFWFCDRIAWYPQHLCEFLDPEGGGK
modifications: disulfide cyclic, N-acetyl, C-amide, fluorescein on Lys; also SEQ32
In the case of B1, the Kd turned out to be 1.9 µM in experiment [1]; 25 µM in experiment [2]; 18 µM in experiment [3]; 12 µM in experiment [4]; 32 µM in [5]; 13.3 µM in experiment [6]. The Kd in experiment [7] was 23 µM; in experiment [8], 11 µM; in experiment [9] it was 1.1 µM; in [10], 5.5 µM; in [11], 1.1 µM; in experiment [12], 1.6 µM. In addition, the Kd was determined as 1.9 µM in experiment [13], 1.9 µM in experiment [14], 1.7 µM in [15] and 11 µM in experiment [16].
